Results reported in article PMC12615753, “Glutathione as a taste modulator: molecular mechanisms of interaction with umami and sweet taste receptors” (Food Chemistry: Molecular Sciences, 2025).

Sequences of proteins named here, by UniProt entry; tags and fusion partners are left off. A change or cut given only in a name is not applied to a line headed by its entry. Residues count along the entry.
UniProt Q7RTX1, 21-841: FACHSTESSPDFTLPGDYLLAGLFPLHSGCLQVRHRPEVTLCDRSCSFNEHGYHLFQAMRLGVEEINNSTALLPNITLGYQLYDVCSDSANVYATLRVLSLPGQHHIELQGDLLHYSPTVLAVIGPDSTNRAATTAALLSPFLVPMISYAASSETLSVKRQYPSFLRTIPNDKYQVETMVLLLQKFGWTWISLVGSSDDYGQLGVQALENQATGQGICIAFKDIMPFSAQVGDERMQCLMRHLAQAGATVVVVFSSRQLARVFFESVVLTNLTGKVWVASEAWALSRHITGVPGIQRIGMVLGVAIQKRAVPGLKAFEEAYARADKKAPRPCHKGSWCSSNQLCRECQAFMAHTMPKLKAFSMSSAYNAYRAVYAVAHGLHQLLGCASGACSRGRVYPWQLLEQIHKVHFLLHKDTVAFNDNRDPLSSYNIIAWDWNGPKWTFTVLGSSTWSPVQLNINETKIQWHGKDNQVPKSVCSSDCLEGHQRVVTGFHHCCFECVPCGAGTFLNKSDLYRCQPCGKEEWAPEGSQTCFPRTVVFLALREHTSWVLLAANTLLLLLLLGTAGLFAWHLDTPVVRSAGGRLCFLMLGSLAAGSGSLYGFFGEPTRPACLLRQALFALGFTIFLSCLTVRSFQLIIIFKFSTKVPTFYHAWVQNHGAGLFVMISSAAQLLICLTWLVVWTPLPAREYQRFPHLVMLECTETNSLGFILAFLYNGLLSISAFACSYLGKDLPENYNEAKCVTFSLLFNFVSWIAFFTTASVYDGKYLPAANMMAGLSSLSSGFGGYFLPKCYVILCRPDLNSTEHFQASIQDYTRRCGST
UniProt Q923K1, 21-858 R173L/E221Q: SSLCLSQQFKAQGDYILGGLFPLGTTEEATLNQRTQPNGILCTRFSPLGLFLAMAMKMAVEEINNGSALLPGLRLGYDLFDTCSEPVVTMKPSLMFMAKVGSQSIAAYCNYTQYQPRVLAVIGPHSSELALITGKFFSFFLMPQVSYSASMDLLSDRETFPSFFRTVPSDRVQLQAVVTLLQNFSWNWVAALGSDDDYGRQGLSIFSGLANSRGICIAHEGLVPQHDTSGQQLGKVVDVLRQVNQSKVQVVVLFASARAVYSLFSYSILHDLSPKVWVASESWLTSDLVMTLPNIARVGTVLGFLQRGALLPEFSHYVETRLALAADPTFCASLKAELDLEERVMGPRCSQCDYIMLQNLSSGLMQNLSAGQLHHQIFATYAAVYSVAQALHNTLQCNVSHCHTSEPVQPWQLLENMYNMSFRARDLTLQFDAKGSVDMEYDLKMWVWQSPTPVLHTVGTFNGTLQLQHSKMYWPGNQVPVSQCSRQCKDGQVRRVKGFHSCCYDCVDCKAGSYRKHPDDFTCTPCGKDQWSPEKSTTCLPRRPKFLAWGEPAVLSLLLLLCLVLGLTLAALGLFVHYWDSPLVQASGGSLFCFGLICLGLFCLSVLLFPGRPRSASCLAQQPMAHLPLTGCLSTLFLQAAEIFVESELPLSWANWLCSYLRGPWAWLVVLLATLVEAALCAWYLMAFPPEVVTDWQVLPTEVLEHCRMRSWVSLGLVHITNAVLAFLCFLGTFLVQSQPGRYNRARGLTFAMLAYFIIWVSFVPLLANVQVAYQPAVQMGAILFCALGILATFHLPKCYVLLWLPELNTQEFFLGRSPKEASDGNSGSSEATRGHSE
UniProt Q8TE23, 20-839: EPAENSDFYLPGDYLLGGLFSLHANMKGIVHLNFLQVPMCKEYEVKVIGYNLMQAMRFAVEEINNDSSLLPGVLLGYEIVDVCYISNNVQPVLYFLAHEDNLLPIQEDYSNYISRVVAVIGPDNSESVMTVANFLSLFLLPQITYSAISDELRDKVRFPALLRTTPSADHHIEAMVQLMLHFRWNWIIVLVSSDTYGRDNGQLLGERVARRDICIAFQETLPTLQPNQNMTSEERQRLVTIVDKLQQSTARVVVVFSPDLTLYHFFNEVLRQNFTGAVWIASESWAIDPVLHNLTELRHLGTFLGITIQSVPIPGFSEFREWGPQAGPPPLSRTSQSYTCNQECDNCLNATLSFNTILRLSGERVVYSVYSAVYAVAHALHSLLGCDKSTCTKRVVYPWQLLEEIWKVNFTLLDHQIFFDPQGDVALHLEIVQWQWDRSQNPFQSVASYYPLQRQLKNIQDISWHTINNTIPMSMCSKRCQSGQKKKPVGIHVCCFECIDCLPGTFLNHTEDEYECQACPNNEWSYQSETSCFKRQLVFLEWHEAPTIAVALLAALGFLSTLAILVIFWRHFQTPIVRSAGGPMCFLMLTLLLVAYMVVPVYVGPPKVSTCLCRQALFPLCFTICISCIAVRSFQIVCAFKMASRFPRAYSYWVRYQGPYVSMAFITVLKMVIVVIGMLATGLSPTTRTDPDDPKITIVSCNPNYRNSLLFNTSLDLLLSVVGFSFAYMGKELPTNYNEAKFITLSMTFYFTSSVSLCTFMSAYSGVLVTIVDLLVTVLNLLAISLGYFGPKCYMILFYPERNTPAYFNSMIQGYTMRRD

Key:
[1] = target: hTAS1R1/rTAS1R3(Mut3) (UniProt Q7RTX1+Q923K1, E221Q/R173L); assay: Calcium assay, mutated rTAS1R3 co-expressed with hTAS1R1; conditions: for response to the agonist alone: Mut3
[2] = target: T1, hTAS1R2/rTAS1R3(Mut3) (UniProt Q8TE23+Q923K1, E221Q/R173L); assay: Calcium assay, mutated rTAS1R3 co-expressed with hTAS1R2; type: cell-based, human, rat; conditions: sucralose alone, Fig. 4A
T1 construct: The cDNA coding region of rTAS1R3 was synthesized with optimized-codon usage for human expression; expressed in transfected cells

Compound	EC50 [1] [µM]	response to the agonist alone [1]	EC50 [2] [µM]
CCCC(CCC)NC(=O)c1ccc2c(c1)OCO2 [S807, N-(heptan-4-yl)benzo[d][1,3]dioxole-5-carboxamide, reference compound]	1.4 ± 0.21	severely impaired	–
OC[C@H]1O[C@H](O[C@]2(CCl)O[C@H](CCl)[C@@H](O)[C@@H]2O)[C@H](O)[C@@H](O)[C@H]1Cl [sucralose, reference compound]	–	–	339 ± 78
N[C@@H](CCC(=O)O)C(=O)O [L-Glu, L-glutamic acid, reference compound]	–	abolished	–
